The source of these data is ChEMBL document CHEMBL5233266, “β-Carboline as a Privileged Scaffold for Multitarget Strategies in Alzheimer's Disease Therapy” (J Med Chem, 2021).

SMILES strings stand for the structures.

For experiment [1], the target named is T1, Gamma-aminobutyric acid receptor subunit alpha-2 (Homo sapiens, UniProt P47869).
T1 sequence (P47869 whole entry): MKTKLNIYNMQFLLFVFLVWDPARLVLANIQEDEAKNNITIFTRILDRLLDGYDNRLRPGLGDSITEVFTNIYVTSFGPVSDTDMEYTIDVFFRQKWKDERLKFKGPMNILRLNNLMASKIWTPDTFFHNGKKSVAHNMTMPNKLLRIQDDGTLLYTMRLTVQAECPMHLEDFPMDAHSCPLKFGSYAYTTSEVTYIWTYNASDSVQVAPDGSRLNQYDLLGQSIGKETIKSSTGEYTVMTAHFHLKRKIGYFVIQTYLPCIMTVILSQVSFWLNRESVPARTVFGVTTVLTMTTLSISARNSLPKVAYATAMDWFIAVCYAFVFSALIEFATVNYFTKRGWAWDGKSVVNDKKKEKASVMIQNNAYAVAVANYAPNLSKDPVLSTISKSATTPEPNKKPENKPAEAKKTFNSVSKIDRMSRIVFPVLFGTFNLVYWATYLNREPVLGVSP
The experiment is described as follows: Binding affinity to human recombinant GABAA alpha2 receptor assessed as inhibition constant incubated for 1 hrs by liquid scintillation counting analysis.

The target of experiment [2] is GABA-A receptor; anion channel. The experiment is described as follows: Displacement of [3H]flunitrazepam from GABAA (unknown origin ) receptor by radioligand binding assay. Type of experiment: protein-complex assay, Homo sapiens.
The target in experiment [3] is Gamma-aminobutyric acid receptor subunit alpha-4 (Homo sapiens, UniProt P48169). Put plainly: Binding affinity to human recombinant GABAA alpha4 receptor assessed as inhibition constant incubated for 1 hrs by liquid scintillation counting analysis.
The target in experiment [4] is T2, Gamma-aminobutyric acid receptor subunit alpha-5 (Homo sapiens, UniProt P31644).
T2 sequence (P31644 whole entry): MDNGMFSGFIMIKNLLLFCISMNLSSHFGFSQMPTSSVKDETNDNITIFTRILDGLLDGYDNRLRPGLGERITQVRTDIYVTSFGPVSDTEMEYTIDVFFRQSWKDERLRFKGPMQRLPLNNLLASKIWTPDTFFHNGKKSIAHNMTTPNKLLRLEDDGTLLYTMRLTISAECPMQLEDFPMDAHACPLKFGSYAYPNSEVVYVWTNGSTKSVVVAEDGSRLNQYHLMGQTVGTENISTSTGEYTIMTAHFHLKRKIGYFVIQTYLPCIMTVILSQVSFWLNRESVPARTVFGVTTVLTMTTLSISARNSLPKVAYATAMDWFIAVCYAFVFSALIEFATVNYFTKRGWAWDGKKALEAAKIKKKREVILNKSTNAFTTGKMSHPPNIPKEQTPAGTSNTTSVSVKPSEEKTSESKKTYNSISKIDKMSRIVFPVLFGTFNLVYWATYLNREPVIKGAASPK
The experiment is described as follows: Binding affinity to human recombinant GABAA alpha5 receptor assessed as inhibition constant incubated for 1 hrs by liquid scintillation counting analysis.

The target in experiment [5] is Gamma-aminobutyric acid receptor subunit alpha-6 (Homo sapiens, UniProt Q16445). Put plainly: Binding affinity to human recombinant GABAA alpha6 receptor assessed as inhibition constant incubated for 1 hrs by liquid scintillation counting analysis.
Experiment [6] has as its target T3, Gamma-aminobutyric acid receptor subunit alpha-3 (Homo sapiens, UniProt P34903).
T3 sequence (P34903 whole entry): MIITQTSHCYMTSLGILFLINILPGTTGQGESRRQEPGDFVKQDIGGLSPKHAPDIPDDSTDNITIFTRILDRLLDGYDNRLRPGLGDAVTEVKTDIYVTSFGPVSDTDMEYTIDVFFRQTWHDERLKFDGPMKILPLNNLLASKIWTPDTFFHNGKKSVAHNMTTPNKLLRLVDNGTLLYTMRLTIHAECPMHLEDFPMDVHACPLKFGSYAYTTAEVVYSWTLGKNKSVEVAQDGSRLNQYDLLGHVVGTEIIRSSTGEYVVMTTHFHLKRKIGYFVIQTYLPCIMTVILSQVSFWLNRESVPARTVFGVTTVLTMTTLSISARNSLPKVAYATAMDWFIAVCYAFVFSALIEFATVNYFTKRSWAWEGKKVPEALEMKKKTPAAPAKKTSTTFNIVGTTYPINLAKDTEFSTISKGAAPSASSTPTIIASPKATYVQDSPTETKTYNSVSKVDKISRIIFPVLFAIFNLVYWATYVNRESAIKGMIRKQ
The experiment is described as follows: Binding affinity to human recombinant GABAA alpha3 receptor assessed as inhibition constant incubated for 1 hrs by liquid scintillation counting analysis.

On to `CCOC(=O)c1cc2c(cn1)[nH]c1ccccc12`, for which the Ki came to 5 nM in experiment [1]; 1000 nM in experiment [3]; 27 nM in experiment [4]; 2700 nM in experiment [5]; 6 nM in experiment [6]. This compound gave an IC50 in experiment [2] of 1 nM.
